A549 viability = counter-screen for Nrf2 inhibitors: cytotoxicity in A549 cells; AID 504648; Potency, µM (top dose mostly 46 µM), inactives show at the top dose activity change, negative = cytotoxicity, hits mostly inhibitors; actives 0.16% (n = 390,000); A549 ARE-Fluc cells, CellTiter-Fluor viability, 18-24 h; also: potency is read from the fitted curve at half-maximal effect; % is scaled to controls: 0 for no effect and ±100 for the full control effect
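Cytotoxicity counterscreen: CellTiter-Fluor fluorescence was measured in A549 ARE_Fluc cells after 18-24 h of compound exposure in a concentration series. The subsequent BugLite luminescent read reports ARE-luciferase activity.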
GRP78 ERSR act = inducers of ER stress response in human glioma cells | U87-MG GRP78 promoter luciferase reporter, 16 h | Potency, µM, inactives show at the top dose activation, most hits filed as activators | actives 0.02% (n = 420,000); also: potency is read from the fitted curve at half-maximal effect; series mostly up to about 76 µM; % of control where 0% means no effect; nearly all actives have a fitted effect of over 35% in size
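Stably transfected U87-MG human glioma cells carrying a GRP78-based luminescent sensor were seeded at 1000 cells/well, pin-dosed with compounds and incubated 16 h. Luciferase reagent was then added, and end-point luminescence was read after 10 min at room temperature.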
miR-21 FLuc = miR-21 reporter, rising signal | HeLa miR-21 FLuc reporter, luciferase, 48 h | Potency, µM (top dose mostly 38.3 µM), inactives show at the highest dose reporter change, positive = more light | 340,000 tested, under 10 active | AID 2288; active = well fitted rising curve with a large enough effect; inconclusive = small, poorly fitted or top-dose-only effect; inactive = no such curve, though single readings can be large or run the other way;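 note: % of control where 0% means no effect; miR-21 action dims this reporter so a rising signal means less miR-21 action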
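HeLa miR-21-FLuc reporter line, endogenous miR-21; 2000 cells/well in DMEM/10% FBS; compound titration up to ~40uM final, 48 h, 37 degree Celsius; luciferase detection reagent, 15 min lysis, CCD luminescence.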
Nrf2 ARE act = Nrf2 pathway activation | actives 0.31% (n = 410,000) | Potency, µM (top dose mostly 46.1 µM), without a hit: top-dose activation, actives largely listed as activators | AID 624171 | AREc32 ARE-luciferase reporter (MCF7-derived line), luminescence, 24 h; also: potency is read from the fitted curve at half-maximal effect; % of control where 0% means no effect; nearly all actives have a fitted effect of over 65% in size
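Cells of the AREc32 ARE-luciferase line are plated in OPTI-MEM containing 5% FBS and left overnight at 37 deg C. Compounds are pinned in, incubation continues 24 hr, and firefly luciferase signal is then measured.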
Mito fusion act = inhibitors of mitochondrial division or activators of mitochondrial fusion. S. cerevisiae fusion-defective mutant growth rescue, CellTiterGlo 48 h. Potency, µM (highest dose often 46.1 µM), without a hit: at the highest dose growth rescue (activation), usual class: activators. AID 485298. actives 0.23% (n = 320,000); also: potency is read from the fitted curve at half-maximal effect; % of control where 0% means no effect; nearly all actives have a fitted effect of over 45% in size
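Temperature-sensitive fusion-defective S. cerevisiae (e.g. fzo1-1, mgm1-5) were grown with compound in YPEG medium (3% ethanol, 3% glycerol) for 48 hours at 37C. Growth rescue was measured as viability by CellTiterGlo luminescence after 10 minutes at ambient.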
Nrf2 inh = blocks Nrf2 signaling | A549 ARE-Fluc reporter, luciferase luminescence, 18-24 h | Potency, µM (titrated, usually from 46 µM), inactives show top-dose activity change, negative = inhibition, hits mostly inhibitors | actives 2.1% (n = 360,000); also: potency is read from the fitted curve at half-maximal effect; % is scaled to controls: 0 for no effect and ±100 for the full control effect; nearly all actives have a fitted effect of over 60% in size
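Nrf2 function is reported as luminescence of an ARE-controlled luciferase in A549 cells. Compounds were tested at several concentrations, and a CellTiter-Fluor read on the same wells flagged cytotoxicity.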
Starred values were filed as active, the others as inactive; ? = inconclusive; / = no result. Sampled rows, rich in hits. Any-hit rate of the full collection: about 2.3%. Unless noted, calls follow the shape of the dose curve; as a rule, active = well fitted curve in the direction sought with a large enough effect; inconclusive = small, poorly fitted or top-dose-only effect, or another doubt; inactive = no such curve, though single readings can be large; an effect the other way counts as inactive or inconclusive.

SMILES	A549 viability	GRP78 ERSR act	miR-21 FLuc	Nrf2 ARE act	Mito fusion act	Nrf2 inh
COc1ccc(OC)c(CC(=O)Nc2cc(S(=O)(=O)N3CCCCC3)ccc2C)c1	-17%	-2%	/	0%	6%	21µM*
CCc1ccc(CNC(=O)Cn2ccc3cc(S(=O)(=O)N4CCCCCC4)ccc32)cc1	-13%	-6%	0%	6%	/	-26%
Cc1ccc(-n2c(Cc3ccccc3)nnc2SCC(=O)NNC(=O)Cc2ccccc2)cc1	?	-3%	-2%	0%	-1%	15%
COc1cccc(OC)c1OCCNCC1CSc2ccccc2O1 (stereo not drawn)	-10%	-1%	/	5%	6%	6%
COc1ccc(NC(=O)CCOc2ccccc2F)cc1S(=O)(=O)N1CCCCC1	-23%	-3%	/	0%	/	21µM*
COc1ccc(NC(=O)COc2ccccc2F)cc1S(=O)(=O)N1CCCCC1	-8%	-2%	5%	3%	1%	?
CC(C)(C)c1ccc(OCCn2c(CCNC(=O)C3CCCCC3)nc3ccccc32)cc1	-29%	-9%	/	/	/	18µM*
Cc1ccc(OCCn2c(CCNC(=O)C3CCCCC3)nc3ccccc32)cc1	-9%	-3%	-2%	/	/	?
CC(C)(C)C(=O)NCCCc1nc2ccccc2n1CCCOc1ccc(Cl)cc1	?	-7%	?	2%	-1%	23µM*
CC(=O)NCCc1nc2ccccc2n1CCCCOc1ccc(Cl)cc1	2%	-3%	29%	7%	/	?
O=C1c2ccccc2C(=O)c2c1ncn2-c1ccccc1	-27%	-2%	-2%	0%	2%	?
C#CCOCCOCCOCCNc1nc(N2CCN(C(=O)CCCCCCCCCCNC(=O)[C@H]([C@@H](C)CC)n3cc(CCCCN=C(N)N)nn3)CC2)nc(N2CCN(C(=O)CCCCCCCCCCNC(=O)[C@@H]([C@H](C)O)n3cc(C)nn3)CC2)n1	?	-10%	/	-3%	-11%	23µM*
COc1cc(/C=N/Nc2snc(SC)c2C#N)cc(OC)c1OC	-26%	-2%	11%	3%	-3%	4.6µM*
CSc1nsc(N/N=C/c2ccc3c(c2)OCO3)c1C#N	0%	6%	-62%	6%	2%	4%
Cc1cc(NS(=O)(=O)c2ccc(NC(=O)CCCOc3ccccc3C)cc2)nc(C)n1	-5%	-2%	-2%	-1%	2%	-1%
O=[N+]([O-])c1cccc(-c2cnc3ccccc3n2)c1	6%	3%	-1%	6.3µM*	5%	?
O=C(CNC(=O)C1CCCCC1)OC(C(=O)c1ccccc1)c1ccccc1 (stereo not drawn)	-13%	-2%	/	-1%	-15%	?
Fc1ccc(Cn2cccc2C2=NC(c3ccccc3)CO2)cc1 (stereo not drawn)	-2%	6%	-37%	0%	21%	1%
Cc1oc(-c2ccccc2)nc1Cn1cccc1C1=NC(c2ccccc2)CO1 (stereo not drawn)	-9%	-3%	11%	0%	-3%	21µM*
CCCCOC(=O)CSc1nnc(-c2cc(OC)c(OC)c(OC)c2)o1	-4%	13µM*	-2%	0%	3%	?
COc1cccc(N=C2SC(C(=O)Nc3ccc(F)cc3)CC(=O)N2C)c1 (stereo not drawn)	?	0%	13%	0%	6%	21µM*
CCOc1ccc(/C=C/c2c([N+](=O)[O-])c(=O)n(C)c(=O)n2C)cc1	?	-2%	17%	?	3%	-16%
CCc1ccc(/C=C/c2c([N+](=O)[O-])c(=O)n(C)c(=O)n2C)cc1	?	-12%	?	?	-15%	13µM*
Cn1c(/C=C/c2ccc(Cl)cc2Cl)c([N+](=O)[O-])c(=O)n(C)c1=O	?	-4%	?	?	-18%	26µM*
CC(NCc1ccc(OCC(N)=O)cc1)C12CC3CC(CC(C3)C1)C2 (stereo not drawn)	-4%	3%	1%	0%	-2%	22%
SMILES	A549 viability	GRP78 ERSR act	miR-21 FLuc	Nrf2 ARE act	Mito fusion act	Nrf2 inh
COc1ccc(NC(=S)NC2CCCC2)c(OC)c1	15%	3%	-9%	0%	-9%	1%
COc1ccc(OC)c(C(C)NC(=S)NC2CCCCC2)c1 (stereo not drawn)	0%	-4%	9%	0%	-15%	18µM*
C=CCNC(=O)[C@@H]1CSC2c3ccc(OC)c(OC)c3C(=O)N21 (stereo partly drawn)	0%	-8%	-4%	0%	16%	-7%
CC(CCc1ccc(O)cc1)NCCC(c1ccccc1)c1ccccc1 (stereo not drawn)	0%	-4%	26%	3%	-12%	2%
CC(CCc1ccc(O)cc1)NC(c1ccccc1)c1ccc(Cl)cc1 (stereo not drawn)	?	3%	17%	0%	1%	23µM*
COc1ccc(NC2=C(Cl)C(=O)N(CCc3ccccc3)C2=O)cc1	-4%	5%	-36%	?	-1%	2%
COc1ccc(NC2=C(Cl)C(=O)N(CCc3ccccc3)C2=O)c(OC)c1	0%	2%	-49%	13µM*	10%	1%
O=c1[nH]c(/C=C\c2ccc(O)c(O)c2)nc(O)c1[N+](=O)[O-]	?	-7%	0%	0%	1%	-6%
Cc1cccc(/C=N/NC(=O)c2cc3c(s2)-c2ccccc2CC3)c1	-12%	2%	0%	3%	11µM*	-20%
O=C(N/N=C/c1cccc(C(F)(F)F)c1)c1cc2c(s1)-c1ccccc1CC2	12%	-1%	-2%	7%	2%	/
CC(C)N(C(=O)CSc1nc(Cc2ccccc2)nc2ccccc12)C(C)C	3%	-4%	6%	2%	-5%	18µM*
CC(C)(C)NC(=O)CSc1nc(Cc2ccccc2)nc2ccccc12	-8%	-4%	-5%	9%	-5%	?
COc1cc(C(=O)N2CCCCC2c2cc(C(=O)N3CCOCC3)no2)cc(OC)c1C (stereo not drawn)	/	-2%	/	4%	/	/
Cc1sc(NC(=O)Cc2ccc3c(c2)OCO3)nc1-c1ccc2c(c1)CCN2C(=O)c1cccc(F)c1	11%	-2%	9%	0%	-1%	7.3µM*
Cc1cccc(C(=O)N2CCc3cc(-c4nc(NC(=O)CN5CCCC5)sc4C)ccc32)c1	-4%	-2%	17%	-1%	-15%	4%
O=C(Nc1cccc(-c2nc3ncccc3o2)c1)c1ccc(-c2cccc(Cl)c2Cl)o1	-6%	1%	-7%	0%	/	5.8µM*

Pulled one by one from the entries so far:
SMILES	A549 viability	GRP78 ERSR act	miR-21 FLuc	Nrf2 ARE act	Mito fusion act	Nrf2 inh
COc1ccc(OC)c(C(C)NC(=S)NC2CCCCC2)c1 (stereo not drawn)	0%	-4%	9%	0%	-15%	18µM*
Cc1cccc(C(=O)N2CCc3cc(-c4nc(NC(=O)CN5CCCC5)sc4C)ccc32)c1	-4%	-2%	17%	-1%	-15%	4%
CC(C)(C)NC(=O)CSc1nc(Cc2ccccc2)nc2ccccc12	-8%	-4%	-5%	9%	-5%	?
COc1ccc(NC2=C(Cl)C(=O)N(CCc3ccccc3)C2=O)cc1	-4%	5%	-36%	?	-1%	2%
COc1ccc(NC(=S)NC2CCCC2)c(OC)c1	15%	3%	-9%	0%	-9%	1%
CC(CCc1ccc(O)cc1)NCCC(c1ccccc1)c1ccccc1 (stereo not drawn)	0%	-4%	26%	3%	-12%	2%

Compound activity as filed in PubChem.
